The target of test [1] is T1, Bcl-2 (Homo sapiens, UniProt P10415). The conditions noted are these: biochemical assays; read-out: Ki, recombinant Bcl-2; cited from earlier work.
For test [2], the target named is T1, Bcl-2. Description: fluorescence-polarization (FP) binding assay, Bcl-2. The conditions noted are these: means ± SD (n≥3). From the text: BM-1197 ( Fig 1 ), was synthesized in a similar manner as described for BM-1074 [16]. We evaluated the binding affinities of BM-1197 to Bcl-2, Bcl-xL and Mcl-1 proteins using our optimized fluorescence-polarization (FP) binding assays.
Data are expressed as means ± SD (n≥3).

Chains of the proteins cited; added tags and fusions are not shown.
UniProt P10415, whole entry: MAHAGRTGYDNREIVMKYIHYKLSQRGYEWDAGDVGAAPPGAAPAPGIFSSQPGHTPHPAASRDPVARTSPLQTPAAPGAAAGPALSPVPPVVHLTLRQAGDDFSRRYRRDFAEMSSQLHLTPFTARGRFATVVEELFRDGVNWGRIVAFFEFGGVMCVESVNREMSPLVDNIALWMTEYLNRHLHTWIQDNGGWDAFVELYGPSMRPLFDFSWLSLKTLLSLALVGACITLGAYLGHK

Read-outs that look alike come from different tables or passages of the source.

By Ki is commonly meant a dissociation constant, usually derived from enzyme kinetics or from competition with a known ligand. The term IC50 denotes the concentration needed to halve the response being measured. Higher therefore signals a need for much substance. On to `CC1(C)CCC(c2ccc(Cl)cc2)=C(CN2CCN(c3ccc(C(=O)NS(=O)(=O)c4ccc(N[C@H](CCN5CCOCC5)CSc5ccccc5)c(S(=O)(=O)C(F)(F)F)c4)cc3)CC2)C1` [ABT-263, reference compound], for which, on Bcl-2 [1], the Ki was less than 1 nM. Moreover, on Bcl-2 [2], the IC50 is 1.9 ± 0.3 nM and the Ki was less than 0.5 nM.
